Laboratory results taken from PubChem BioAssay AID1688 (National Center for Advancing Translational Sciences (NCATS), 2009).
The list shows a part of the results, in another mix than the full data. Results filed as inconclusive are left out. Calls of active or inactive are those of the source. Calls come from the whole dose curve; as a rule, active = well fitted inhibition curve with a large enough effect; inconclusive = small, poorly fitted or top-dose-only effect, or effect the other way; inactive = no such curve, though single readings can be large or run the other way.

test: qHTS Multiplex Assay to Identify Dual Action Probes in a Cell Model of Huntington: Aggregate Formation (GFP); conditions: PC12 HttQ103-GFP aggregates, Acumen cytometry, 40 h; activity change, negative = inhibition: at the top concentration; note: nearly all actives have a fitted effect of over 60% in size
% is set by controls: 0 for no effect and ±100 for the full control effect; potency is the fitted concentration of half-maximal effect.

| Compound | activity change, negative = inhibition | Potency |
| --- | --- | --- |
| CC(=O)NC(SC(=S)N(C)C)C(Cl)(Cl)Cl (centres undefined) | inactive: 10.6% [at 46.1 µM] |  |
| O=[As](O)(c1ccccc1)c1ccc(O)cc1 | inactive: -0.993% |  |
| O=P(Nc1nc2ccccc2s1)(c1ccccc1)c1ccccc1 | inactive: -5.96% |  |
| C[C@H]1OP(=O)(Oc2ccccc2)[C@H](O)[C@H](O)[C@H]1N=[N+]=[N-] (some centres undefined) | inactive: 12.7% |  |
| CN(C(=O)Cc1ccccc1)[C@H]1CC[C@@]2(CCCO2)C[C@@H]1N1CCCC1 | inactive: 30.4% [at 46.1 µM] |  |
| O=P(Nc1ccccn1)(c1ccc(Br)cc1)c1ccc(Br)cc1 | inactive: 20.3% |  |
| c1nnnn1CCn1cnnn1 | inactive: 1.57% [at 46.1 µM] |  |
| O=P(Nc1nccs1)(c1ccccc1)c1ccccc1 | inactive: -2.84% [at 46.1 µM] |  |
| CC(C)C(=O)NC(Sc1ccccc1)C(Cl)(Cl)Cl (centres undefined) | inactive: -9.89% [at 46.1 µM] |  |
| CC(=O)Nc1ccc([As](=O)(O)O)c(O)c1 | inactive: -5.12% |  |
| CC(=O)Nc1ccc(Oc2c([N+](=O)[O-])cc([N+](=O)[O-])cc2[N+](=O)[O-])cc1 | inactive: 24.7% [at 46.1 µM] |  |
| C[C@H]1OP(=O)(Oc2ccccc2)C[C@@H]2O[C@@H]21 (some centres undefined) | inactive: 0% |  |
| C[C@@H]1C=CCP(=O)(Oc2ccccc2)O1 (some centres undefined) | inactive: 6.88% |  |
| CC(C)(C)C(=O)NC(Sc1ccccc1)C(Cl)(Cl)Cl (centres undefined) | inactive: 7.15% [at 46.1 µM] |  |
| O=P1(Nc2nc3ccc(Cl)cc3s2)COc2ccccc2O1 (centres undefined) | inactive: -12.4% [at 46.1 µM] |  |
| CCOc1ccc(C2=NCC(CBr)S2)cc1 (centres undefined) | inactive: 12.8% |  |
| Cc1ccccc1OP(=O)(Nc1ccccn1)Oc1ccccc1C | inactive: -19.3% |  |
| O=c1c2cc([N+](=O)[O-])ccc2[nH]c2c([N+](=O)[O-])cc([N+](=O)[O-])cc12 | inactive: -8.61% |  |
| CN(C)C(=O)Oc1noc2ccccc12 | inactive: 7.82% |  |
| COC(=O)c1cc2c(s1)N=C(c1ccccc1)N(C)P2(=O)N1CCOCC1 (centres undefined) | inactive: 0.967% [at 46.1 µM] |  |

| Compound | activity change, negative = inhibition | Potency |
| --- | --- | --- |
| Cc1ccc(OP(=O)(Nc2ccccn2)Oc2ccc(C)cc2)cc1 | inactive: -24.1% [at 46.1 µM] |  |
| CC(=O)NC(SC(=S)N(CC(C)C)CC(C)C)C(Cl)(Cl)Cl (centres undefined) | inactive: -1.25% [at 46.1 µM] |  |
| O=C(OC1CN2CCC1CC2)c1ccccc1 (centres undefined) | inactive: 3.74% [at 46.1 µM] |  |
| CCC(=O)N1C2C3N(C(=O)CC)C1C1N(C(=O)CC)C(C(N1C(=O)CC)N3C(=O)CC)N2C(=O)CC | inactive: -4.31% [at 46.1 µM] |  |
| O=C(NC1CCS(=O)(=O)C1)NP(=S)(Oc1ccccc1)Oc1ccccc1 (centres undefined) | inactive: 5.19% [at 46.1 µM] |  |
| CCNC(=S)/N=C(\N)N[N+](=O)[O-] | inactive: -1.63% |  |
| c1ccc(-c2nn[nH]n2)c(-c2nn[nH]n2)c1 | inactive: -0.815% |  |
| CCOC(=O)NC(Sc1ccccc1)C(Cl)(Cl)Cl (centres undefined) | inactive: 8.96% [at 46.1 µM] |  |
| Cc1ccc(NP(=O)(Oc2cccc(C)c2)Oc2cccc(C)c2)nc1 | inactive: -23.2% |  |
| CCN(N=Nc1nonc1N)c1nonc1N | inactive: -11.8% [at 46.1 µM] |  |
| Nc1cccc2ccc([As](=O)(O)O)cc12 | inactive: -14.7% |  |
| Cc1cc(SC(NC(=O)c2ccc(F)cc2)C(Cl)(Cl)Cl)ncn1 (centres undefined) | inactive: 16.1% [at 46.1 µM] |  |
| CCOP(=O)(Nc1ccccc1)OCC |  | inactive |
| Cc1ccc(NP(=O)(Oc2ccccc2F)Oc2ccccc2F)nc1 | inactive: 17.3% |  |
| CC(=O)Nc1ccc([As](=O)(O)O)cc1 | inactive: 6.02% |  |
| O=C(O)c1ccccc1[As](=O)(O)O | inactive: -21.8% |  |
| O=P(Nc1nc2ccc(Cl)cc2s1)(c1ccccc1)c1ccccc1 | inactive: -19.9% |  |
| Nc1cc(N)c2nonc2c1[N+](=O)[O-] | inactive: -14% |  |
| CC(C)CC(=O)NC(Sc1ccc(Cl)cc1)C(Cl)(Cl)Cl (centres undefined) | inactive: -6.15% [at 46.1 µM] |  |
| Oc1ccccc1CNc1ccccn1 | inactive: -0.713% [at 46.1 µM] |  |

| Compound | activity change, negative = inhibition | Potency |
| --- | --- | --- |
| O=C(NC(Sc1ccncn1)C(Cl)(Cl)Cl)c1ccccc1 (centres undefined) | inactive: 12.3% [at 46.1 µM] |  |
| COc1ccccc1OP(=O)(Nc1ccc(C)cn1)Oc1ccccc1OC | inactive: 7.2% |  |
| Cc1ccc(OP(=O)(Nc2nccs2)Oc2ccc(C)cc2)cc1 | inactive: -20.5% |  |
| Clc1ccc(Cl)c(NC2=NCC(CBr)S2)c1 (centres undefined) | inactive: 23.8% [at 46.1 µM] |  |
| NC(=O)c1cc([N+](=O)[O-])cc([N+](=O)[O-])c1N | inactive: 6.64% [at 46.1 µM] |  |
| Cc1ccc(N/C(=N/P(=O)(N2CCOCC2)N2CCOCC2)N2CCOCC2)cc1 | inactive: 8.37% |  |
| CC(C)=N/N=C(\N)N[N+](=O)[O-] | inactive: -3.16% |  |
| CC1CCN(C(=O)Oc2c(Cl)cc(Cl)c3cccnc23)CC1 | inactive: 0.946% [at 46.1 µM] |  |
| Nc1ccc([As](=O)(O)c2ccc(N)cc2)cc1 | inactive: 8.43% |  |
| C[N+]1=C2C=CC=CC=C2SC12C([N+](=O)[O-])=CC([N+](=O)[O-])=C[C-]2[N+](=O)[O-] (centres undefined) | inactive: -17.6% |  |
| CC(=O)N1C2C3N(C(C)=O)C1C1N(C(C)=O)C(C(N1C(C)=O)N3C(C)=O)N2C(C)=O | inactive: 5.33% [at 46.1 µM] |  |
| O=[N+]([O-])c1cccc2n[nH]nc12 | inactive: 5.91% [at 46.1 µM] |  |
| Cc1ccc(NP(=O)(Oc2ccccc2)Oc2ccccc2)nc1 | inactive: 22.5% [at 46.1 µM] |  |
| CCc1nc2c(n1)c1c(non1O)c1c2no[n+]1[O-] |  | active: 11.2 µM |
| O=[N+]([O-])c1cccc(NC2=NCC(CBr)S2)c1 (centres undefined) | inactive: -10.7% |  |
| O=C(O)CNc1ccc([As](=O)(O)O)cc1 | inactive: -10% |  |
| CC(C)(C)C(=O)NC(Sc1ccncn1)C(Cl)(Cl)Cl (centres undefined) | inactive: -1.36% |  |
| O=[N+]([O-])c1ncn(CCn2ncnc2[N+](=O)[O-])n1 | inactive: 3.72% [at 46.1 µM] |  |
| O=C(Nc1cc([As](=O)(O)O)ccc1O)c1ccccc1 | inactive: 3.88% |  |
